According to PubChem BioAssay AID438 (Columbia University Molecular Screening Center, 2006):
The entries are a selection whose mix differs from that of the whole data set. The source made the active and inactive calls.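 Rule for the calls: active = inhibition above 20% together with a positive visual image hit; inconclusive = visual image hit but inhibition not above 20%; inactive = no visual image hit.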

experiment: inhibitors of TNFa-induced NFkB p65 translocation, primary screen, imaging, HUVEC, MLSMR starter and 10KST1 sets (AID 438); conditions: HUVEC TNFa-induced p65 nuclear translocation, at 2 µM, active compounds read high, 0% TNFa-plus-vehicle, 100% no-TNFa wells;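 note: compound added about 3h40 before a 20 min TNFalpha stimulation; signal is the nuclear over cytoplasmic p65 intensity ratio per well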

| SMILES | inhibition |
| --- | --- |
| CP(=S)(Nn1cnnc1)Oc1ccccc1 (stereo unspecified) | inactive: -4.3% |
| Cc1ccc(C)c(NP(C)(=O)Oc2ccccc2)c1 (stereo unspecified) | inactive: -10.1% |
| CP(=O)(Nc1ccc2c(c1)OCCO2)Oc1ccccc1 (stereo unspecified) | inactive: 9.7% |
| CN(C)CCOC(=O)C(O)(c1ccccc1)C1CCCCC1 (stereo unspecified) | inactive: 18.6% |
| CP(=O)(Nc1ccccn1)Oc1ccccc1 (stereo unspecified) | inactive: 2.1% |
| CCN(CC)CC(O)COC(=O)C(O)(c1ccccc1)C1CCCCC1 (stereo unspecified) | inactive: -7.3% |
